# The entries are a selection whose mix differs from that of the whole data set. The source made the active and inactive calls.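 How the source made its calls: active means inhibition above a per-campaign cutoff equal to the mean of compounds falling between control-based bounds plus 3 SD (cut at about 20% in these data); inactive means the rest.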
# Amino acid sequences for entries named in this document (tags omitted). Residues count along the entry.
# UniProt O14672, 214-748 limits assumed: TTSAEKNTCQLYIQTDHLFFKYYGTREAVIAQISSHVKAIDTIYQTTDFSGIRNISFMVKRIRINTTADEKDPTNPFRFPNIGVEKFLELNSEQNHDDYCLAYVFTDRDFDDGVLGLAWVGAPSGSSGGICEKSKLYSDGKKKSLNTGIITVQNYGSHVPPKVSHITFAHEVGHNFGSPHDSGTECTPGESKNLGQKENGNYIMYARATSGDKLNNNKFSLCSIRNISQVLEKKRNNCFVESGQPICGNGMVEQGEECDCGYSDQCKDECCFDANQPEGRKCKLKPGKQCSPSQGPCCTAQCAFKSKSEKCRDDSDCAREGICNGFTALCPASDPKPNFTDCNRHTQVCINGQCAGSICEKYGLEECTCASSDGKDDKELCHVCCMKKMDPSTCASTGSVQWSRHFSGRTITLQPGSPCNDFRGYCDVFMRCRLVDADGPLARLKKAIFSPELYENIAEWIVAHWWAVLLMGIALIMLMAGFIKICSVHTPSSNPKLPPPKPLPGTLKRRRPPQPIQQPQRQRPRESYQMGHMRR
# Molecular target: Disintegrin and metalloproteinase domain-containing protein 10 (Homo sapiens) (UniProt O14672)
# Experiment: blockers of ADAM10 peptide cleavage – biochemical, QFRET, HTS, primary screen (AID 720582);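 further: 0% = DMSO wells while the 100% control is not disclosed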
# Settings: recombinant ADAM10, EDANS/DABCYL FRET peptide cleavage, 3 h; at 7 µM; hits give high values
row,SMILES,inhibition
1,CCC(=O)N(c1ccccc1)C1(COC)CCN(CCc2cccs2)CC1,inactive: -4.55%
2,CCC(=O)N(c1ccccc1)C1(COC)CCN(CCn2nnn(CC)c2=O)CC1,inactive: -18%

# — PubChem BioAssay AID720582 (The Scripps Research Institute Molecular Screening Center, 2013)
